Results on 1 compound are retold here after BindingDB's records for doi:10.1016/j.bmcl.2005.07.021 (Johnson & Johnson Pharmaceutical Research and Development, 2005).

The target of the test is Glycogen phosphorylase, muscle form (Oryctolagus cuniculus) (UniProt P00489). The experiment in a line: Inhibitory concentration against glycogen phosphorylase of rabbit muscle.

Each structure is given as a SMILES string.

As usually defined, the IC50 is the concentration that gives 50% inhibition. High values mean a need for much substance, low ones inhibition by little substance. `O=C(NCc1cccs1)c1ccc(Nc2nc3ccccc3n(CCN3CCCCC3)c2=O)cc1` [4-[3-Oxo-4-(2-piperidin-1-yl-ethyl)-3,4-dihydro-quinoxalin-2-ylamino]-N-thiophen-2-ylmethyl-benzamide]: the IC50 was found to be 420 nM.
